Experimental findings from patent EP0627929B1, “INHIBITORS OF THROMBOSIS” (CORVAS INTERNATIONAL, INC., priority 1992, dated 1993) are described below.

Chains of the proteins cited; added tags and fusions are not shown. Residues count along the entry.
UniProt P00742, 41-179 partner limits assumed: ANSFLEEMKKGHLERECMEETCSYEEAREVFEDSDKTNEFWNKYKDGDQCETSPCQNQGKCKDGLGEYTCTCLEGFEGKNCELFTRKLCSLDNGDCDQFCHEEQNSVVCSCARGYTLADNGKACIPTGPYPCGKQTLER
UniProt P00742, 235-488 limits assumed: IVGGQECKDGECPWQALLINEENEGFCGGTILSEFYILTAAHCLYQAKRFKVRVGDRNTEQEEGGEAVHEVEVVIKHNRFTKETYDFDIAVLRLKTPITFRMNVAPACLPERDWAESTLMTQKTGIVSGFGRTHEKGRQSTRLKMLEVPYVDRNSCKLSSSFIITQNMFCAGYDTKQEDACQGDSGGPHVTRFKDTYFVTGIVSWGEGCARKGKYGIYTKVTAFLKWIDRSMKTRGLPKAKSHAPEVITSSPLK

The target in the assay is T1, Human factor Xa (Homo sapiens, UniProt P00742).
T1 construct: Human factor Xa was prepared from purified human factor X obtained from Enzyme Research Laboratories; purchased Enzyme Research Laboratories
In words: Factor Xa assay: inhibition of chromogenic substrate (S2765) hydrolysis. In kind it is biochemical. The note with it: human factor Xa 0.5 nM, substrate 250 µM, 30 minute incubation, HBSA pH 7.5.

“N-Boc-D-phenylalanyl-L-aspartyl-L-prolyl-L-argininal [Boc-(D-Phe)-Pro-Arg-al, reference compound]” had a 50% inhibitory concentration (IC50) of 5.3 µM.

Broadly, the IC50 is the point on the concentration scale where inhibition reaches its midpoint.
